TRPM1 prom inh: reduces MITF-dependent TRPM1 promoter luciferase signal. inhibition, % at 12.5 µM. 330,000 tested, 0.83% active. SK-MEL-5 TRPM1 promoter luciferase, 24 h. AID 488899;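 active = mean inhibition across replicates of 60% or more, whatever share of single replicates reaches that level; inconclusive = some that reach 60%, reason not given; inactive = mean inhibition across replicates below 60%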
PGC1a acetyl inh: PGC1a acetylation modulation, inhibitor mode; U2OS PGC1a acetylation, AlphaScreen anti-acetyl-lysine; with virally co-expressed GCN5 acetyltransferase; inhibition, % at 15.6 µM; 350,000 tested, 0.17% active; AID 651687;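 active = every replicate shows inhibition of at least 40%; inconclusive = mean inhibition at least 40% but some replicate below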;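 note: 0% = neutral control wells and 100% = positive control wells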
UUG fidelity: alters start codon recognition fidelity in yeast. S. cerevisiae UUG-firefly luciferase reporter, luminescence/redox ratio. activity score, % at 18.7 µM. 0.13% of 350,000 active. AID 602363;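 active = replicate mean at a twofold rise or more, about +100% in these data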;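 also: firefly luciferase made from a UUG start codon reports start codon fidelity; reporter light over untreated wells divided by growth signal over untreated wells; some hits fall short of that in this replicate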
Wnt bcat act: activates Wnt/beta-catenin signaling in a reporter cell assay; 300,000 tested, 1.2% active; activator, plate reader; AID 743398; activation, % at 9.35 µM; in the data active = activation above about 30%, passing the limit was not always enough; inconclusive = no clear call, values can overlap the other calls;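 note: 0% = neutral control wells and 100% = positive control wells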
MITF act: activators of MITF-driven TRPM1 promoter activity in SK-MEL-5 cells; AID 588334; SK-MEL-5 TRPM1-promoter luciferase, 24 h; % of positive control, neutral wells = 0; 300,000 tested, 0.75% active; activation, % at 12.5 µM;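 active = mean activation of at least 80% with every replicate also reaching 80%; inconclusive = mean reaches 80% but some replicate falls short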;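 note: 0% = neutral control wells and 100% = parthenolide positive control wells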
miR-122 sensor: inhibitors of miR-122 in Huh7 cells; Huh7 miR-122 Renilla luciferase sensor, 48 h; neutral wells = 0, positive control = 100; activation (reporter increase), % at 12.5 µM; 340,000 tested, 0.3% active; AID 602342;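 active = mean replicate activation score at least 90 and every replicate individually at or above 90; inconclusive = only one of the two criteria met; inactive = neither criterion met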;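 note: higher luciferase means less miR-122 activity so hits act as miR-122 inhibitors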
Numbers without * were called inactive; ? = inconclusive; / = not tested or not shown; [ ] = another dose, or the depositor's remark. Rows were chosen to be rich in hits. Some 2.1% of all compounds tested hit in one or more screens of this group.

nr | Wnt bcat act | UUG fidelity | mol | MITF act | PGC1a acetyl inh | TRPM1 prom inh | miR-122 sensor
1 | / | -7 | COc1ccc(C#Cc2ccc3c(c2)[C@H]2[C@H](CCN2C(=O)c2ccccc2F)[C@H](CO)N3)cc1 | / | 5 | / | 5[16.7 µM]
2 | / | -14 | O=C(C[C@H]1CC[C@H]2[C@@H](COC[C@H](O)CN2C(=O)Nc2ccccc2)O1)NCCCN1CCOCC1 | / | -2 | / | -3[16.7 µM]
3 | -4 | -20 | Cc1cccnc1Nc1nc(-c2ccc(F)cc2)cs1 | / | -2 | -69 | -2
4 | 85* | / | Cc1nc(C)c(-c2csc(Nc3cccc(O)c3)n2)s1 | 42 | -7 | -42 | /
5 | 5 | -30 | Cc1nc(N)sc1-c1csc(Nc2cccc(O)c2)n1 | 29 | 2 | -33 | 2
6 | / | -9 | COc1cccc(Nc2nc(-c3ccc(O)cc3)cs2)c1 | 90* | -12 | -88 | 3
7 | 17 | -21 | COc1cccc(Nc2nc(-c3cccc(N4C(=O)c5ccccc5C4=O)c3)cs2)c1 | 21 | -3 | -22 | 6
8 | / | -10 | Cc1cccnc1Nc1nc(-c2ccc(O)cc2)cs1 | 101* | 5 | -94 | -6

Later entries:
nr | Wnt bcat act | UUG fidelity | mol | MITF act | PGC1a acetyl inh | TRPM1 prom inh | miR-122 sensor
9 | -2 | / | C/C(=N\Nc1ccc(S(=O)(=O)Nc2ccccc2)cc1[N+](=O)[O-])c1ccc(N2CCOCC2)cc1 | -6 | / | 8 | 22
10 | ? | -17 | C/C(=N\Nc1ccc(S(=O)(=O)Nc2ccc(Cl)cc2)cc1[N+](=O)[O-])c1ccc(N2CCOCC2)cc1 | -13 | / | 12 | 170*
11 | -6 | -22 | O=C(Cc1csc(Nc2nc(=S)[nH]c3ccccc23)n1)NCCCN1CCN(c2ccccc2F)CC1 | -67 | / | 66* | -18
12 | -5 | -10 | O=C(Cc1csc(Nc2nc(=S)[nH]c3ccccc23)n1)NCc1ccc(Cl)cc1 | -13 | -6 | 7 | 1
13 | / | -23 | C[C@@H]1CN([C@H](C)CO)C(=O)c2cc(NC(=O)Cc3cn(C)c4ccccc34)ccc2O[C@H]1CN(C)S(=O)(=O)c1ccc(Cl)cc1 | / | -5 | / | 5[16.7 µM]
14 | -1 | -7 | CC(C)C(=O)N1CCC1(C)C(=O)NCc1cc(Cl)ccc1F (stereo not given) | / | 6 | / | -4
15 | 36* | -8 | Cc1ccc(F)c(CNC(=O)C2(C)CCCN2C(=O)C(C)C)c1F (stereo not given) | / | 2 | / | -3
16 | / | -8 | C[C@H]1CN([C@@H](C)CO)C(=O)c2cc(-c3ccc(C#N)cc3)cnc2O[C@H]1CN(C)C(=O)Nc1ccccc1 | / | 6 | / | -5[16.7 µM]

(listing goes on)
nr | Wnt bcat act | UUG fidelity | mol | MITF act | PGC1a acetyl inh | TRPM1 prom inh | miR-122 sensor
17 | / | -7 | O=C1CCCCC(=O)N(c2ccccc2)c2ccccc21 | 8 | -13 | -7 | -4
18 | 0 | -3 | O=C1CCCS(=O)(=O)c2ccccc21 | 4 | / | -2 | 172*
19 | / | -12 | COc1cc(-c2cc(=O)c3c(O)cc(O)cc3o2)ccc1O | / | -7 | / | -4
20 | -10 | -62 | O=c1cc(-c2ccccc2)oc2ccc3ccccc3c12 | / | -1 | / | 11
21 | 46* | 7 | O=c1cc(-c2ccc(O)cc2)oc2cc(O)cc(O)c12 | 94* | -12 | -88 | 4
22 | 23 | -13 | COc1cc(O)c2c(=O)cc(-c3ccccc3)oc2c1 | 95* | -5 | -93 | -2
23 | 6 | -18 | O=c1cc(-c2ccccc2)oc2cc(O)cc(O)c12 | 100* | -3 | -102 | -6
24 | -9 | / | O=c1cc(-c2ccc(O)c(O)c2)oc2ccc3ccccc3c12 | -88 | / | 88* | /

Compounds listed so far with a nitro group on carbon:
nr | Wnt bcat act | UUG fidelity | mol | MITF act | PGC1a acetyl inh | TRPM1 prom inh | miR-122 sensor
9 | -2 | / | C/C(=N\Nc1ccc(S(=O)(=O)Nc2ccccc2)cc1[N+](=O)[O-])c1ccc(N2CCOCC2)cc1 | -6 | / | 8 | 22
10 | ? | -17 | C/C(=N\Nc1ccc(S(=O)(=O)Nc2ccc(Cl)cc2)cc1[N+](=O)[O-])c1ccc(N2CCOCC2)cc1 | -13 | / | 12 | 170*

(continued)
nr | Wnt bcat act | UUG fidelity | mol | MITF act | PGC1a acetyl inh | TRPM1 prom inh | miR-122 sensor
25 | / | 4 | O=C(Nc1ccc(C(F)(F)F)cc1)N[C@@H]1CC[C@@H](CC(=O)N2CCCCC2)O[C@H]1CO | / | 0 | / | /
26 | / | 4 | CCCN1C[C@H](C)[C@H](OC)CN(C)C(=O)c2cc(NC(=O)c3cccc(F)c3)ccc2OC[C@@H]1C | / | -6 | / | 6[16.7 µM]
27 | / | 1 | O=C(Cc1ccncc1)Nc1ccc2c(c1)[C@@H]1C[C@H](CC(=O)NC3CCCC3)O[C@H](CO)[C@@H]1O2 | / | -3 | / | 29[16.7 µM]
28 | 55* | / | Cc1ccc2c(c1)sc1nc(=O)n(-c3ccccc3)c(=O)n12 | 48 | / | -100 | /
29 | / | / | CCCCCCCCC[n+]1cccc2c3ccccc3ccc21 | -93 | -19 | 93* | -14
30 | 0 | / | O=[N+]([O-])c1ccc(C[n+]2cccc3c4ccccc4ccc32)cc1 | -25 | / | 24 | 12
31 | -12 | / | CCCCCCCCCCCCCCCC[n+]1cccc2ccccc21 | -102 | / | 103* | /
32 | -6 | -5 | Cc1ccccc1C[n+]1cccc2ccccc21 | -17 | 20 | 15 | 3

Remaining list, next part.
nr | Wnt bcat act | UUG fidelity | mol | MITF act | PGC1a acetyl inh | TRPM1 prom inh | miR-122 sensor
33 | -23 | -94 | C(=NN1CCCCCC1)c1ccc2ccccc2n1 | -92 | 4 | 93* | 5
34 | / | -2 | COCC#Cc1ccc2c(c1)O[C@@H](CN(C)C)[C@H](C)CN([C@@H](C)CO)S2(=O)=O | / | -2 | / | 4[16.7 µM]
35 | / | / | CCCNC(=O)N1[C@H](CO)[C@@H](c2ccccc2-c2cccc(C)c2)[C@@H]1C#N | / | 3 | / | /
36 | / | 1 | CC(C)C(=O)Nc1cccc(-c2cnc3ccccc3n2)c1 | ? | 9 | -81 | -6
37 | 15 | / | CS(=O)(=O)Nc1cccc(-c2cnc3ccccc3n2)c1 | 98* | / | -89 | /
38 | / | -9 | C[C@H]1CN([C@@H](C)CO)C(=O)c2cc(C3=CCCC3)cnc2O[C@H]1CN(C)C | / | 4 | / | -4[16.7 µM]
39 | / | -9 | O=C(Nc1ccc(F)cc1)N[C@@H]1CC[C@@H](CCn2cc(C3(O)CCCC3)nn2)O[C@@H]1CO | / | -5 | / | /
40 | -4 | 10 | COc1ccc(-c2cc(N)n(S(=O)(=O)c3c(F)c(F)c(F)c(F)c3F)n2)cc1OC | -97 | -75 | 98* | -6

Rewritten with values under each structure: entries from further up
Screens in order – Wnt bcat act | UUG fidelity | MITF act | PGC1a acetyl inh | TRPM1 prom inh | miR-122 sensor
[38] C[C@H]1CN([C@@H](C)CO)C(=O)c2cc(C3=CCCC3)cnc2O[C@H]1CN(C)C
  / | -9 | / | 4 | / | -4[16.7 µM]
[39] O=C(Nc1ccc(F)cc1)N[C@@H]1CC[C@@H](CCn2cc(C3(O)CCCC3)nn2)O[C@@H]1CO
  / | -9 | / | -5 | / | /

(next part)
nr | Wnt bcat act | UUG fidelity | mol | MITF act | PGC1a acetyl inh | TRPM1 prom inh | miR-122 sensor
41 | 38* | -23 | COc1ccc2nc(NC(=O)c3ccccc3O)sc2c1 | 88* | / | -93 | 2
42 | 50* | -10 | CCOc1ccc2nc(SCC(=O)c3cccs3)sc2c1 | / | -4 | -81 | 2
43 | 43* | -15 | CCC(C)C(=O)Nc1nc2ccc(OC)cc2s1 (stereo not given) | / | 0 | -118 | 1
44 | ? | -5 | COc1ccc2nc(NC(C)=O)sc2c1 | 39 | -17 | -35 | -4
45 | / | -1 | CCOc1ccc2nc(SCC(=O)c3ccc(Cl)s3)sc2c1 | 3 | -4 | 4 | 0
46 | 8 | 0 | COc1ccc2nc(NC(=O)c3ccccc3[N+](=O)[O-])sc2c1 | 16 | / | -17 | /
47 | 51* | -9 | O=C(Nc1nc2cc3c(cc2s1)OCCO3)c1ccc([N+](=O)[O-])o1 | -34 | -1 | 35 | -3
48 | / | 0 | CO[C@H]1CN(C)C(=O)c2cc(NC(=O)C3CCOCC3)ccc2OC[C@H](C)N(C(C)=O)C[C@@H]1C | / | -8 | / | 9[16.7 µM]
49 | / | / | CC(=O)N(C)C[C@@H]1Oc2cc(C#Cc3ccc(F)cc3)ccc2S(=O)(=O)N([C@H](C)CO)C[C@H]1C | / | 2 | / | -17[16.7 µM]
50 | / | 11 | COc1ccc(S(=O)(=O)N(C)C[C@@H]2OCCCC[C@H](C)Oc3ccc(NS(C)(=O)=O)cc3C(=O)N([C@H](C)CO)C[C@H]2C)cc1 | / | -8 | / | 7[16.7 µM]
51 | 32* | / | O=C(Nc1nc2cc3c(cc2s1)OCCO3)c1cccs1 | -15 | / | 15 | 5

Structural class, those above containing an aryl thioether with sulfur outside any ring.
nr | Wnt bcat act | UUG fidelity | mol | MITF act | PGC1a acetyl inh | TRPM1 prom inh | miR-122 sensor
42 | 50* | -10 | CCOc1ccc2nc(SCC(=O)c3cccs3)sc2c1 | / | -4 | -81 | 2
45 | / | -1 | CCOc1ccc2nc(SCC(=O)c3ccc(Cl)s3)sc2c1 | 3 | -4 | 4 | 0

From PubChem BioAssay
